The values below come from PubChem BioAssay AID904 (National Center for Advancing Translational Sciences (NCATS), 2007).

Each structure is given as a SMILES string. Only a part is listed here, and it is no random draw. Some results for these compounds are left out of this collection, so the calls shown say nothing about other tests. Inconclusive results are not listed. The source made the active and inactive calls. Calls come from the whole dose curve; as a rule, active = well fitted cell-killing curve with a large enough effect; inconclusive = small, poorly fitted or top-dose-only effect; inactive = no such curve, though single readings can be large or run the other way.

A short description of the assay: qHTS Screen for Compounds that Selectively Target Cancer Cells with p53 Mutations: Cytotoxicity of p53 Null Cells at the Nonpermissive Temperature.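 Note: 0% = DMSO only and -100% = full killing by 100 µM tamoxifen; nearly all actives have a fitted effect of over 50% in size.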 The settings on record: H1299 p53-null (neo) cells, 39C, ATPlite viability, 24 h; at 46.1 µM (top of the series). From the text:
NIH Chemical Genomics Center [NCGC] NIH Molecular Libraries Screening Centers Network [MLSCN] MLSCN Grant: 1 X01 MH079844-01 Assay Submitter (PI): Dr. SUN, YI, University of Michigan NCGC Assay Overview: Synthetic Lethal Screen for Compounds to Kill Cancer Cells with p53 Mutation. Tumor suppressor gene p53 serves as a major cellular barrier against tumorigenesis. […] The goal of this screening is to identify small molecule probes that selectively kill cancer cells with mutations in p53. This screening was carried out using two lines of H1299 lung cancer cells. The H1299-p53 A138V line express a temperature sensitive p53 mutant (p53ts) in which the mutant p53 protein (A138V) is in the mutant confirmation when grown at 39C (the nonpermissive temperature) and in the wild type conformation when grown at 32C (the permissive temperature). A H1299-neo line (p53 null) grown at both 39C and 32C were used as counter-screens to filter out false positive associated with temperature shifting. The small molecular compounds that selectively target mutant p53-containing cancer cells were selected as candidate probes for further study. A cytotoxicity assay based on the measurement of ATP contents in cells was used in this screen. Concentration-responses of all the compounds in the library collection were determined in qHTS using the cell lines and temperature conditions as above.
NCGC Assay Protocol Summary: Both the H1299-p53A138V and H1299-neo cell lines were provided by Dr.Yi Sun, a PI at the University Michigan. The cells were maintained and cultured at 37C. The resuspended frozen cells were used to plate the cells in the 1536-well assay plates at a density of 600 cells per well in 5 ul medium. The assay plates with the cells were incubated at 37C for 16 to 30 hours before the experiments. The library compounds in DMSO solution were added to the cells in assay plates and incubated 24 hours at 39C (for mutant p53 conformation) or 32C (for normal p53 conformation as control). An ATP_lite assay kit (PerkinElmer) was used to determine the cell viability. Tomaxifen (100uM) was used as the positive control for cell killing. Data were normalized to the controls for basal activity (DMSO only) and 100% killing (100uM tamoxifen). AC50 values were determined from concentration-response data modeled with the standard Hill equation. P53 assay protocol: 1. Reagent; 5 uL H1299-p53A138V or H1299-neo cell cells/well 2. Time; overnight; 37C incubation 3. Compounds; 23 nL; 5.9 nM to 46 uM 4. Controls; 23 nL; Tamoxifen 100 uM 5. Time; 24 hr; 39C incubation 6. Reagent; 3 uL; ATP_Lite reagent 7. Time; 20 min; Room Temperature 8. Detection; Luminescence; Viewlux plate reader Keywords: p53, synthetic lethal, cancer, cell viability, cytotoxicity, H1299 cell line, luminescence, MLSMR, MLSCN, NIH Roadmap, qHTS, NCGC
Regarding `CN(C)C1(CNC(=O)c2ccccc2[N+](=O)[O-])CCCCC1`, the activity, negative = cell killing was inactive: 16.2%.

Turning to `CN(C)C1CCCC1OC(=O)C(O)(c1ccccc1)c1ccccc1` (stereo unspecified), the activity, negative = cell killing was inactive: 4.24%. Regarding `CCCCOc1ccccc1C(=O)NCC1(N(C)C)CCCCC1`, the activity, negative = cell killing is inactive: -0.248%. For `CN(C)C1(CNC(=O)c2cccc(Cl)c2)CCCCC1`, the activity, negative = cell killing is inactive: 19.3%. Take `CN(C)C1(CNC(=O)c2ccccc2F)CCCCC1`: the activity, negative = cell killing was inactive: 8.93%.

Regarding `COc1cc(C(=O)NCC2(N(C)C)CCCCC2)cc(OC)c1OC`, the activity, negative = cell killing is inactive: 10.9%. Turning to `Cc1cccc(C(=O)NCC2(N(C)C)CCCCC2)c1`, the activity, negative = cell killing is inactive: -5.07%. On to `CC(C)Oc1ccc(C(=O)NCC2(N(C)C)CCCCC2)cc1`, for which the activity, negative = cell killing is inactive: -14.4%.

In the case of `COc1cccc(C(=O)NCC2(N3CCOCC3)CCCCC2)c1`, the activity, negative = cell killing was inactive: -3.99%.

Regarding `CC(C)COc1ccc(C(=O)NCC2(N(C)C)CCCCC2)cc1`, the activity, negative = cell killing is inactive: -18.9%. In the case of `COc1ccc(C(=O)NCC2(N(C)C)CCCCC2)cc1Cl`, the activity, negative = cell killing was inactive: 17.8%.
